This is an account of results in ChEMBL document CHEMBL3784966, “Approaching the active conformation of 1,3-diaminopyrimidine based covalent inhibitors of Bruton's tyrosine kinase for treatment of Rheumatoid arthritis” (Bioorg Med Chem Lett, 2016).

Chains of the proteins cited; added tags and fusions are not shown. Lines headed by an entry give the natural chain unless they say otherwise; changes in a name come on top.
UniProt Q06187: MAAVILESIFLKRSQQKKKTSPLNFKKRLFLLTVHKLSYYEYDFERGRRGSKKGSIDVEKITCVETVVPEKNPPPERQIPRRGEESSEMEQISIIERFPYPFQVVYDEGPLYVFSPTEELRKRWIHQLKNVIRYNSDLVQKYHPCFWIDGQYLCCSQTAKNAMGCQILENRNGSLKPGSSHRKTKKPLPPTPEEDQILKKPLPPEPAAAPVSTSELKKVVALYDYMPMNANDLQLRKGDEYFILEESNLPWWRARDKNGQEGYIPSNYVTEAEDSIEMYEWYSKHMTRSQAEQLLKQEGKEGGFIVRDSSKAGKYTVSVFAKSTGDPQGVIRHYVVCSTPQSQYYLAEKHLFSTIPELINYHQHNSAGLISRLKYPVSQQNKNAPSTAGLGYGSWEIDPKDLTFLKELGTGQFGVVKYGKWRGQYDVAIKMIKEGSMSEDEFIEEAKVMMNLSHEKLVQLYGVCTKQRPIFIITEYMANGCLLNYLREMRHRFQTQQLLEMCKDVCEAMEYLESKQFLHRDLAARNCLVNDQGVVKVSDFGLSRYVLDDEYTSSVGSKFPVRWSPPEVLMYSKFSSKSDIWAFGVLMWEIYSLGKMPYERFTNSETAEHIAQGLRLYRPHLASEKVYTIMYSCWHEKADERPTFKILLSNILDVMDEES

This assay deals with Tyrosine-protein kinase BTK (Homo sapiens, UniProt Q06187). The assay can be described thus: Inhibition of BTK (unknown origin).

In the case of `C=CC(=O)Nc1cccc(Nc2nc(Nc3ccc(OCCOC)cc3)ncc2F)c1` [SPEBRUTINIB], the IC50 (commonly the concentration that inhibits the measured activity by half) is 4.61 nM.
